Measured values taken from publication PMC2994686, “The Function and Three-Dimensional Structure of a Thromboxane A2/Cysteinyl Leukotriene-Binding Protein from the Saliva of a Mosquito Vector of the Malaria Parasite” (PLoS Biology, 2010).

Target: AnSt-D7L1 (Anopheles stephensi, UniProt Q95NY5)
Details: ITC, relative to U46619

In the case of `CCCCCC/C=C/[C@@H]1[C@@H](C/C=C\CCCC(=O)O)[C@@H]2C[C@H]1N=N2`, the “binding affinity for AnSt-D7L1, fold lower than for U46619” value is reported as “approximately 10 fold”.
